From ChEMBL document CHEMBL2177054, “Rational design of conformationally constrained cyclopentapeptide antagonists for C-x-C chemokine receptor 4 (CXCR4)” (J Med Chem, 2012)

Amino acid sequences for entries named in this document (tags omitted).
UniProt P61073, whole entry: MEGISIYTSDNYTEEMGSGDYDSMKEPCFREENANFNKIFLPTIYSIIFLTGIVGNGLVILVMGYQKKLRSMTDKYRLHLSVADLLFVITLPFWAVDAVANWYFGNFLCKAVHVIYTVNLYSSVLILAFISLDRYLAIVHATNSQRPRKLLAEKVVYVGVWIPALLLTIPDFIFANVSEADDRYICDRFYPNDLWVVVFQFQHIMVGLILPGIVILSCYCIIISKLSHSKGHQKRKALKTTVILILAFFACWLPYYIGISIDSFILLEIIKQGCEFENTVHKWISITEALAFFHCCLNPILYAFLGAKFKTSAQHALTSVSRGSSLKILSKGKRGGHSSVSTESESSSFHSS

Molecular target: C-X-C chemokine receptor type 4 (Homo sapiens, UniProt P61073)
Test: Antagonist activity against human CXCR4 expressed in COS7 cells assessed as inhibition of CXCL12-induced myo-[3H]inositol production by scintillation counting
Assay type: functional, cell-based, COS-7

EC50 [nM]	Compound
470	N=C(N)NCCC[C@@H]1NC(=O)[C@H](CCCNC(=N)N)NC(=O)[C@@H](Cc2ccc(O)cc2)NC(=O)CNC(=O)[C@H](Cc2ccc3ccccc3c2)NC1=O
780	N=C(N)NCCC[C@@H]1NC(=O)[C@@H](CCCNC(=N)N)NC(=O)[C@@H](Cc2ccc(O)cc2)NC(=O)CNC(=O)[C@H](Cc2ccc3ccccc3c2)NC1=O
